# Laboratory results from PubChem BioAssay (Tox21).
# “And” between values parts separate entries of the source, which are not always exact repeats. Identical values can stand only once. The entries are a selection whose mix differs from that of the whole data set. Results filed as inconclusive are left out. The source made the active and inactive calls. Calls follow the shape of the dose curve; as a rule, active = well fitted cell-killing curve with a large enough effect in the repeat runs; inconclusive = weak or mixed curves, or effect the other way; inactive = flat fitted curve, though single readings scatter.
# Assay: qHTS assay to identify small molecule agonists of the constitutive androstane receptor (CAR) signaling pathway - cell viability counter screen (AID 1224836); also: nearly all actives have a fitted effect of over 45% in size
# Conditions: HepG2-CYP2B6-hCAR viability, CellTiter-Fluor, 23 h; at 42.5 µM (top of the series); PK11195 added to every well
# Description: U.S. Tox21 Program National Center for Advancing Translational Sciences [NCATS] NIH Chemical Genomics Center [NCGC] U.S. Environmental Protection Agency [EPA] National Institutes of Environmental Health Sciences [NIEHS] National Toxicology Program [NTP] U.S. Food and Drug Administration [FDA] Tox21 Assay Overview: The constitutive androstane receptor (CAR) is a nuclear receptor which regulates multiple drug metabolizing enzymes (DMEs) and transporters. Activating CAR will generally increase the transcription and subsequent translation of CYP2B6 and CYP3A4. These two DMEs represent about 50% of the drug metabolizing potential in the body. […] Recently, there have also been studies performed indicating CARs role in energy metabolism and cancer therapy. Therefore, inducing CARs activity could have a potential effect on diabetes and cancer. Identifying environmental toxins and compounds which modulate CAR, through the use of the Tox21 10K compound collection, will be an important step in determining the toxicity and potential therapeutic effects these factors will have on the human body. To differentiate true CAR agonists from cytotoxic substances, the assay is multiplexed with a cell viability assay.
# Tox21 Assay Protocol Summary: A double-stable (hCAR and CYP2B6-2.2kb) transfected cell line, derived from human hepatoma (HepG2) cells, was utilized for the duration of the quantitative high-throughput screens. The HepG2-CYP2B6-hCAR cells were dispensed at 2500 cells/4 uL/well in 1536-well white solid bottom plates using a Multidrop Combi. After the assay plates were incubated at 37 C/5% CO2 for 4 hrs, 23 nL of compounds at 15 concentrations (from 5-48 columns) or positive control (from 1 to 4 columns) were transferred to the assay plates using a Pintool station. One uL of PK11195 (final concentration = 0.75 uM) was added, using a Flying Reagent Dispenser, inside each well. After a 23 hr incubation period at 37 C/5% CO2, 1 uL of CellTiter-Fluor reagent was added into each well of the assay plates using a Flying Reagent Dispenser. The fluorescence intensity in the plates was then measured using a ViewLux plate reader.
# % is scaled to controls: 0 for no effect and ±100 for the full control effect.
row,Compound,"viability change, negative = cytotoxic"
1,CCOP(=O)(CC)Oc1ccc([N+](=O)[O-])cc1 (stereo not given),inactive: -12.6%
2,OCCSCCO,inactive: 3.68%
3,C/C1=C2N=C(/C=C3N=C(/C(C)=C4\[N-][C@@](C)([C@@H]5N=C1[C@](C)(CCC(=O)NC[C@@H](C)OP(=O)([O-])O[C@H]1[C@@H](O)[C@@H](n6cnc7cc(C)c(C)cc76)O[C@@H]1CO)[C@H]5CC(N)=O)[C@@](C)(CC(N)=O)[C@@H]4CCC(N)=O)[C@@](C)(CC(N)=O)[C@@H]\3CCC(N)=O)C(C)(C)[C@@H]/2CCC(N)=O.[C-]#N.[Co+3],inactive: -20.1%

# Same assay, conditions: HepG2-CYP2B6-hCAR viability, CellTiter-Fluor, 23 h; at 92.4 µM (top of the series); PK11195 added to every well
row,Compound,"viability change, negative = cytotoxic"
1,OCCSCCO,inactive: 1.89%
2,CCN(CC)CCCl,inactive: 8.39%
3,CP(=O)(O)OCCC[Si](O)(O)O,inactive: 2.98%
4,N=C(N)N[N+](=O)[O-],inactive: 1.63%
5,CCOP(=O)(CC)OCC,inactive: 4.29%
6,CC(C)N(CCO)C(C)C,inactive: -4.12%
7,COc1ccc([N+](=O)[O-])cc1[N+](=O)[O-],inactive: 9.01%
8,O=[N+]([O-])c1cccc([N+](=O)[O-])c1,inactive: -0.199%
9,Cc1c([N+](=O)[O-])cccc1[N+](=O)[O-],inactive: 2.41% and inactive: -0.915%
10,[NH4+].[O-][Cl+3]([O-])([O-])[O-],inactive: 10% and inactive: 0.208%
11,O=[N+]([O-])[O-].[NH4+],inactive: 0.946% and inactive: -1.8%
12,N#CBr,inactive: 1.67%
13,CC(C)OP(C)(=O)OC(C)C,inactive: 0.941% and inactive: 1.02%
14,Cc1ccc([N+](=O)[O-])c([N+](=O)[O-])c1,inactive: -9.67%
15,COP(C)(=O)OC,inactive: -6.92% and inactive: 1.24%
16,CN(C)CCCl,inactive: 2.69%
17,O=[N+]([O-])OCC(CO[N+](=O)[O-])(CO[N+](=O)[O-])CO[N+](=O)[O-],inactive: 2.05%
